Results as given in article PMC10141580, “Cyclic Dichalcogenides Extend the Reach of Bioreductive Prodrugs to Harness Thiol/Disulfide Oxidoreductases: Applications to seco-Duocarmycins Targeting the Thioredoxin System” (ACS Central Science, 2023).
Where two headings read alike, the source gives them in different places.

Test system: panel of 140 standard cancer cell lines
Assay: ProliFiler-140 cancer cell line screen (CellTiterGlo, 72 h)
Format: cell-based
Experimental: Incubations were performed for 72 h before automated viability readout with CellTiterGlo (Figure 8).
End of Figure S11 (part 5 of 5): ProliFiler-140 cancer cell line screening for cytotoxicity of the prodrugs.
8-data-point dose response curves from CellTiter-Glo® viability readout.
ProliFiler-140 cell line panel part V

## COc1cccc2c1C(=O)c1c(O)c3c(c(O)c1C2=O)C[C@@](O)(C(=O)CO)C[C@@H]3O[C@H]1C[C@H](N)[C@H](O)[C@H](C)O1 [doxorubicin, reference compound]
BEN (Lung), read-out: IC50 [M] (ProliFiler-140)
  IC50: 4.1e-06 M
Homo sapiens, COLO 205, Colo 205 (Colon), read-out: IC50 [M] (ProliFiler-140)
  IC50: 1.5e-07 M
Homo sapiens, COLO 205, Colo 205, read-out: IC50
  IC50: 1.5e-07 M
Homo sapiens, MCF7, MCF-7 (Breast), read-out: IC50 [M] (ProliFiler-140)
  IC50: 2.3e-07 M
Homo sapiens, MCF7, MCF-7, read-out: IC50
  IC50: 2.3e-07 M
Homo sapiens, MDA-MB-231, MDA MB 231 (Breast), read-out: IC50 [M] (ProliFiler-140)
  IC50: 2.83e-07 M
MDA MB 231 (Breast), listed as Dox, read-out: IC50 [M] (ProliFiler-140)
  IC50: 2.8e-07 M
